Measurements as given in patent US8728442B2, “Method of controlling the growth of microorganisms by a composition containing isolated or in vitro synthesized nitrosoamides” (Bayer CropScience LP, priority 2009, dated 2014).

System: yeast cells
Conditions: deletion mutants treated at 15 ug/L air

Structure (SMILES): CC(C)C(=O)N(C)N=O [Compound 1, N-methyl N-nitrosoisobutyramide]
- sensitive mutants for which DNA damage repair genes were deleted: About 38%
